Measured values published in US10543132B2, “Absorbent article with blood modifying agent” (UNICHARM CORPORATION, priority 2011, dated 2020).

Assay: Water solubility in 100 g of water at 25° C.
Description: As used herein, the term “solubility” in regard to water solubility includes cases where the sample completely dissolves in deionized water to form a homogeneous mixture, and cases where the sample is completely emulsified. As used herein, “completely” means that no mass of the sample remains in the deionized water.

[1] = in 100 g of deionized water at 25° C., 24 hours, visual evaluation

Row | Substance | Water solubility [1] | Water solubility | other results
1 | Dodecanoic acid (C12) monoester of butylene glycol [COMPOL BL] | <0.05 g | – | –
2 | Isopropyl Citrate | – | – | Water solubility (g): 20< g
3 | Octadecanoic acid (C18) monoester of butylene glycol [COMPOL BS] | <0.05 g | – | –
4 | Polyoxybutylenepolyoxypropylene glycol [UNIOL PB700] | – | <0.05 g | –
5 | Stearyl ether of polypropylene glycol [UNILUBE MS-70K] | – | <0.05 g | –

Like-named read-outs stand apart in the source and are kept apart here.
